# Assay results from US9102686B2, “5,6,7,8,9,10-hexahydro-6,10-epimino[1,2,4]triazolo[4,3-a]azocines as P2X7 modulators” (Janssen Pharmaceutica NV, priority 2013, dated 2015).
# By UniProt entry, the sequences of proteins in these tests, tags left out. Where a name states a change or a piece, a line headed by the entry shows the natural chain unless it says otherwise.
# UniProt Q99572: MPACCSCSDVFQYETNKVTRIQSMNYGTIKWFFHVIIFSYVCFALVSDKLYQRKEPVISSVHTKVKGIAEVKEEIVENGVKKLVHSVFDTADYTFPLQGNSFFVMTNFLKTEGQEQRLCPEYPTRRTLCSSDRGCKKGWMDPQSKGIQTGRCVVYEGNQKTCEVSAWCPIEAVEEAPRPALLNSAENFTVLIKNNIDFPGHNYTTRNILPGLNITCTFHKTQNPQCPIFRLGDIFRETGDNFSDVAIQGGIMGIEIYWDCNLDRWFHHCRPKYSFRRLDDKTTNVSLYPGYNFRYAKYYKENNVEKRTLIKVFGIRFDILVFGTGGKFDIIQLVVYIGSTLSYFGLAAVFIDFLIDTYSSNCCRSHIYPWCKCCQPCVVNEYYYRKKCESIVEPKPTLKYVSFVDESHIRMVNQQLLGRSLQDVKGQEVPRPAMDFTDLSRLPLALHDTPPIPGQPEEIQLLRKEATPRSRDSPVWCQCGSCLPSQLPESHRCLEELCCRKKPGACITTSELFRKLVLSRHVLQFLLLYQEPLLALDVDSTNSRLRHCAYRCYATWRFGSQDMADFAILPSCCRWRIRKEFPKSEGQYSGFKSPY
# UniProt Q64663: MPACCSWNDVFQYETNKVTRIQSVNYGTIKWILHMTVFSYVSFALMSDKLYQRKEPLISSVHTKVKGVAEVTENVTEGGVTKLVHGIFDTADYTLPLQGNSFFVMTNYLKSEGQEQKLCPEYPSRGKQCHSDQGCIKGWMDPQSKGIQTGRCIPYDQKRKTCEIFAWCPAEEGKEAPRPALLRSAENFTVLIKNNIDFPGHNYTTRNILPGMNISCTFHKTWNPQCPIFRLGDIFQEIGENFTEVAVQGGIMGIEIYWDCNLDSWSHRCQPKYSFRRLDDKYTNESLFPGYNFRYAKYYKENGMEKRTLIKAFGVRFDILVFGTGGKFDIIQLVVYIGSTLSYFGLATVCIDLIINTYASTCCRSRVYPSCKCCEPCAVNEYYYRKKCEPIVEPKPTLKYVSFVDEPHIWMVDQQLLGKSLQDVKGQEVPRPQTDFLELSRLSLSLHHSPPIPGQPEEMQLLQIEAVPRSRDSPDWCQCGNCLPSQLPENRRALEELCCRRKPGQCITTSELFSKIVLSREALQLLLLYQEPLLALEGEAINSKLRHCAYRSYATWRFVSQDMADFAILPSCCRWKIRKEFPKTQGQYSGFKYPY
# Like-named read-outs stand apart in the source and are kept apart here.
# Key:
# [1] = biological target: T1, P2X7 (Homo sapiens (Human), UniProt Q99572); assay: Ca2+ flux (FLIPR) in 1321N1 cells expressing recombinant human P2X7 channel; assay type: cell-based
# [2] = biological target: T2, rat P2X7 (Rattus norvegicus (Rat), UniProt Q64663); assay: Ca2+ flux (FLIPR) in 1321N1 cells expressing recombinant rat P2X7 channel; assay type: cell-based
# [3] = biological target: T1, P2X7; assay: Radioligand binding, human P2X7-1321N1 cell membranes, tritiated A-804598
# Method: P2X7 Antagonism in Recombinant hP2X7 Cells: (a) Ca^2+ Flux (b) Radioligand Binding
# (B) Radioligand binding: human or rat P2X7-1321N1 cells were collected and frozen @−80° C. On the day of the experiment, cell membrane preparations were made according to standard published methods. The total assay volume was 100 μl:10 μl compound (10×)+(b) 40 μl tracer (2.5×)+50 μl membrane (2×). The tracer used for the assay was tritiated A-804598. The compound can be prepared as described in the literature. […] The assay was terminated by filtration (GF/B filters pre-soaked with 0.3% PEI) and washed with washing buffer (Tris-HCl 50 mM). The IC50 generated in the binding assay was corrected for tracer concentration and affinity of the tracer to derive at the affinity (Ki) of the test compounds.
# [4] = biological target: T2, rat P2X7; assay: Radioligand binding, rat P2X7-1321N1 cell membranes, tritiated A-804598
# [5] = 1321N1 cells, human P2X7, 250 μM BzATP, read-out: FLIPR (human) IC50
# [6] = 1321N1 cells, rat P2X7, 250 μM BzATP, read-out: FLIPR (rat) IC50
# [7] = human P2X7-1321N1 membranes, tracer tritiated A-804598, 1 hour 4° C., read-out: P2X7 human Ki
# [8] = rat P2X7-1321N1 membranes, tracer tritiated A-804598, 1 hour 4° C., read-out: P2X7 rat Ki
SMILES,IC50 [1],IC50 [2],Ki [3],"IC50 [2, 6]","Ki [3, 7]","Ki [4, 8]",further results
"O=C(c1cccc(C(F)(F)F)c1Cl)N1[C@H]2CCC[C@@H]1c1nnc(-c3cscn3)n1C2 (single isomer, unassigned) [Example 8, (6S*,10R*)-11-{[2-Chloro-3-(trifluoromethyl)phenyl]carbonyl}-3-(1,3-thiazol-4-yl)-5,6,7,8,9,10-hexahydro-6,10-epimino[1,2,4]triazolo[4,3-a]azocine]",9.7 nM,2.5 nM,10 nM,,,,Ki [4]: 1.3 nM
"Cc1cccc(-c2nnc3n2C[C@@H]2CCC[C@H]3N2C(=O)c2cccc(C(F)(F)F)c2Cl)n1 (single isomer, unassigned) [Example 23, (6S*,10R*)-11-{[2-Chloro-3-(trifluoromethyl)phenyl]carbonyl}-3-(6-methylpyridin-2-yl)-5,6,7,8,9,10-hexahydro-6,10-epimino[1,2,4]triazolo[4,3-a]azocine]",40.4 nM,56 nM,24 nM,,,,Ki [4]: 5 nM
"Cc1ccc(-c2nnc3n2C[C@H]2CCC[C@@H]3N2C(=O)c2ccnc(C(F)(F)F)c2Cl)s1 (single isomer, unassigned) [Example 39, (6R*,10S*)-11-{[3-Chloro-2-(trifluoromethyl)pyridin-4-yl]-carbonyl}-3-(5-methylthiophen-2-yl)-5,6,7,8,9,10-hexahydro-6,10-epimino[1,2,4]triazolo[4,3-a]azocine]",51.1 nM,79.8 nM,25.1 nM,,,,
"O=C(c1cccc(C(F)(F)F)c1Cl)N1C2CCCC1c1nnc(-c3ccc(F)cc3)n1C2 (stereo not drawn) [Example 4, 11-{[2-Chloro-3-(trifluoromethyl)phenyl]carbonyl}-3-(4-fluorophenyl)-5,6,7,8,9,10-hexahydro-6,10-epimino[1,2,4]triazolo[4,3-a]azocine]",,,,133 nM,20 nM,,"IC50 [1, 5]: 95.3 nM"
"O=C(c1cccc(C(F)(F)F)c1Cl)N1C2CCCC1c1nnc(-c3cscn3)n1C2 (stereo not drawn) [Example 7, 11-{[2-Chloro-3-(trifluoromethyl)phenyl]carbonyl}-3-(1,3-thiazol-4-yl)-5,6,7,8,9,10-hexahydro-6,10-epimino[1,2,4]triazolo[4,3-a]azocine]",,,,15.7 nM,12.6 nM,,"IC50 [1, 5]: 7.7 nM"
"O=C(c1cccc(C(F)(F)F)c1Cl)N1[C@H]2CC[C@@H]1c1nnc(-c3ccc(F)cn3)n1C2 [Example 45, (6S,9R)-10-{[2-Chloro-3-(trifluoromethyl)phenyl]carbonyl}-3-(5-fluoropyridin-2-yl)-6,7,8,9-tetrahydro-5H-6,9-epimino[1,2,4]triazolo[4,3-a]azepine]",,,,,,31.6 nM,
"O=C(c1ccc(F)c(Cl)c1Cl)N1[C@H]2CC[C@@H]1c1nnc(-c3cnccn3)n1C2 [Example 47, (6S,9R)-10-[(2,3-Dichloro-4-fluorophenyl)carbonyl]-3-pyrazin-2-yl-6,7,8,9-tetrahydro-5H-6,9-epimino[1,2,4]triazolo[4,3-a]azepine]",,,,,,6.3 nM,
"O=C(c1cccc(C(F)(F)F)c1Cl)N1[C@H]2CC[C@@H]1c1nnc(-c3cccnc3)n1C2 [Example 48, (6S,9R)-10-{[2-Chloro-3-(trifluoromethyl)phenyl]carbonyl}-3-pyridin-3-yl-6,7,8,9-tetrahydro-5H-6,9-epimino[1,2,4]triazolo[4,3-a]azepine]",,,,,,15.8 nM,
"O=C(c1cccc(C(F)(F)F)c1Cl)N1[C@H]2CC[C@@H]1c1nnc(-c3ncc(F)cn3)n1C2 [Example 50, (6S,9R)-10-{[2-Chloro-3-(trifluoromethyl)phenyl]carbonyl}-3-(5-fluoropyrimidin-2-yl)-6,7,8,9-tetrahydro-5H-6,9-epimino[1,2,4]triazolo[4,3-a]azepine]",,,,6780 nM,15.8 nM,10 nM,
"O=C(c1cccc(C(F)(F)F)c1Cl)N1[C@H]2CC[C@@H]1c1nnc(-c3ccc(Cl)s3)n1C2 [Example 55, (6S,9R)-3-(5-Chlorothiophen-2-yl)-10-{[2-chloro-3-(trifluoromethyl)phenyl]carbonyl}-6,7,8,9-tetrahydro-5H-6,9-epimino[1,2,4]triazolo[4,3-a]azepine]",,,,,,15.8 nM,
